This note sets out measurements from patent publication EP0973746B1, “SUBSTITUTED 3-CYANO QUINOLINES” (Wyeth Holdings Corporation, priority 1997, dated 1998).

By UniProt entry, the sequences of proteins in these tests, tags left out. Residues count along the entry.
UniProt P29317, 24-976, species assumed: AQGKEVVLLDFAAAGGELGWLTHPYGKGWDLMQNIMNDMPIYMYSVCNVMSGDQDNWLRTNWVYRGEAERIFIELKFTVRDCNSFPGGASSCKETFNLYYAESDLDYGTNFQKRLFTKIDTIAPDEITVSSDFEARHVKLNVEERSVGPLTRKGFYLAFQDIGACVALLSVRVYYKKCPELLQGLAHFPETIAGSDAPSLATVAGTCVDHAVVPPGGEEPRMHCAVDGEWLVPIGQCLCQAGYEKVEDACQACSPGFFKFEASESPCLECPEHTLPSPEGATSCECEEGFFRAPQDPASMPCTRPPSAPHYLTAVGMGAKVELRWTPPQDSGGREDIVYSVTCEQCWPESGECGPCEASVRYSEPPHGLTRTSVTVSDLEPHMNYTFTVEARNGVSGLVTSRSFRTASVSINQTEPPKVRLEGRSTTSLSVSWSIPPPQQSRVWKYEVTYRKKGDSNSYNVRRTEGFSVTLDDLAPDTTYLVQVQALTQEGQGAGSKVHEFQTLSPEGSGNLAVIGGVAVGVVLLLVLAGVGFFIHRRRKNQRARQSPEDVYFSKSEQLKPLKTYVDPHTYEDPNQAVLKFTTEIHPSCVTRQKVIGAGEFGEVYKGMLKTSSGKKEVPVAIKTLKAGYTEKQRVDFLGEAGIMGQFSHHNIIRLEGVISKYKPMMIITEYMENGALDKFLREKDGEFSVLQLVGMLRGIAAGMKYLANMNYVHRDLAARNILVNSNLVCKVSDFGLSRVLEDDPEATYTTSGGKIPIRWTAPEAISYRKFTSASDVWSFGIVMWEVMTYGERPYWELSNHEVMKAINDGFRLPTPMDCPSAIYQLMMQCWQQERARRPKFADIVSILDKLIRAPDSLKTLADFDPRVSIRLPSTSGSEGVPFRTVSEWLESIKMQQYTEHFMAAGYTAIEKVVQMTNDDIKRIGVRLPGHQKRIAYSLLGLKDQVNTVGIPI

As a reminder, the IC50 is the concentration needed to halve the response being measured.

For the first experiment, the target named is Epithelial Cell Kinase (ECK) (Homo sapiens, UniProt P29317). Put plainly: biochemical. The following applies: Eck IC50.
On to `COc1cc2ncc(C#N)c(Nc3cccc(Br)c3)c2cc1OCCCN1CCOCC1` [Example 126], for which the half-inhibitory concentration (IC50) is less than 0.0402 µM. The same measure, in the same setting: the figure for `COc1cc2ncc(C#N)c(Nc3ccc(Cl)cc3F)c2cc1OCCCN1CCOCC1` [Example 127] is more than 42.5 µM. `COc1cc2ncc(C#N)c(Nc3ccc(C)c(O)c3)c2cc1OCCCN1CCOCC1` [Example 128] yielded an IC50 of more than 44.6 µM.

Staying with this experiment, now noted: Eck IC50, pH 7.2; nonradioactive format.
As to `COc1cc2ncc(C#N)c(Nc3cccc(Br)c3)c2cc1[N+](=O)[O-]` [Example 6], the IC50 is more than 25 µM. Same read-out and setting: the figure for `COc1cc2ncc(C#N)c(Nc3cccc(Br)c3)c2cc1N` [Example 7, 6-Amino-4-[(3-bromophenyl)amino] -7-methoxy-3-quinolinecarbonitrile] is more than 27.1 µM. The same measure, in the same setting: the figure for `CC#CC(=O)Nc1cc2c(Nc3cccc(Br)c3)c(C#N)cnc2cc1OC` [Example 8, N-[4-[(3-Bromophenyl)amino]-3-cyano-7-methoxy-6-guinolinyl]-2-butynamide] is less than 0.0459 µM; for `C=CC(=O)Nc1cc2c(Nc3cccc(Br)c3)c(C#N)cnc2cc1OC` [Example 9, N-[4-[(3-Bromophenyl)amino]-3-cyano-7-methoxy-6-quinolinyl]-2-propenamide] it is more than 47.2 µM; for `N#Cc1cnc2ccc([N+](=O)[O-])cc2c1Nc1cccc(Br)c1` [Example 13, 4-[(3-Bromophenyl)amino]-6-nitro-3-quinolinecarbonitrile] it is more than 27.1 µM.

With `N#Cc1cnc2ccc(N)cc2c1Nc1cccc(Br)c1` [Example 14, 6-Amino-4-[(3-bromophenyl)amino]-3-quinolinecarbonitrile], the IC50 is more than 29.5 µM. The same measure, in the same setting: the figure for `CC#CC(=O)Nc1ccc2ncc(C#N)c(Nc3cccc(Br)c3)c2c1` [Example 15, N-[4-[(3-Bromophenyl)amino]-3-cyano-6-quinolinyl]-2-butynamide] is less than 0.0494 µM; for `C=CC(=O)Nc1ccc2ncc(C#N)c(Nc3cccc(Br)c3)c2c1` [Example 18, N-[4-[(3-Bromophenyl)amino]-3-cyano-6-quinolinyl]-2-propenamide] it is more than 50.9 µM; for `COc1cc2ncc(C#N)c(Nc3cccc(F)c3)c2cc1OC` [Example 35, 4-[(3-Fluorophenyl)amino]-6,7-dimethoxy-3-quinolinecarbonitrile] it is more than 61.9 µM. Same read-out and setting: next, `COc1cc2ncc(C#N)c(Nc3cccc(Cl)c3)c2cc1OC` [Example 41, 4-[(3-Chlorophenyl)amino]-6,7-dimethoxy-3-quinolinecarbonitrile]: more than 58.9 µM. Same read-out and setting: the figure for `COc1cc2ncc(C#N)c(Nc3cccc(C#N)c3)c2cc1OC` [Example 45, 4-[(3-Cyanophenyl)amino]-6,7-dimethoxy-3-quinolinecarbonitrile] is more than 60.5 µM; for `COc1cc2ncc(C#N)c(Nc3ccc(F)cc3)c2cc1OC` [Example 46, 4-((4-Fluorophenyl)amino]-6,7-dimethoxy-3-quinolinecarbonitrile] it is more than 61.9 µM; for `COc1cc2ncc(C#N)c(Nc3cccc(CO)c3)c2cc1OC` [Example 48, 4-[(3-(hydroxymethyl)phenyl)amino]-6,7-dimethoxy-3-quinolinecarbonitrile] it is more than 59.6 µM. With `COc1cc2ncc(C#N)c(Oc3cccc(Br)c3)c2cc1OC` [Example 49, 4-(3-Bromophenoxy)-6,7-dimethoxy-3-quinolinecarbonitrile], the concentration for half-maximal inhibition (IC50) is more than 51.9 µM. Still for that read-out and setting: next, `COCC=CC(=O)Nc1ccc2ncc(C#N)c(Nc3cccc(Br)c3)c2c1` [Example 65, 4-Methoxy-but-2-enoic acid [4-(3-bromo-phenylamino)-3-cyano-quinolin-6-yl]-amide]: more than 22.9 µM; `COc1cc2c(Nc3ccc(C)c(O)c3)c(C#N)cnc2cc1OCCN1CCOCC1` [Example 83, 4-(3-Hydroxy-4-methyl-phenylamino)-6-methoxy-7-(2-morpholin-4-yl-ethoxy)-quinoline-3-carbonitrile]: more than 46 µM. The same measure, in the same setting: the figure for `COc1cc2c(Nc3cc(O)c(Cl)cc3F)c(C#N)cnc2cc1OCCN(C)C` [Example 86, 4-(4-Chloro-2-fluoro-5-hydroxy-phenylamino)-7-(2-dimethylamino-ethoxy)-6-methoxy-quinoline-3-carbonitrile] is more than 46.4 µM.

On to `COc1cc2c(Nc3cc(O)c(Cl)cc3F)c(C#N)cnc2cc1OCCN1CCOCC1` [Example 87, 4-(4-Chloro-2-fluoro-5-hydroxy-phenylamino)-6-methoxy-7-(2-morpholin-4-yl-ethoxy)-quinoline-3-carbonitrile], for which the IC50 is more than 42.3 µM.

As to `C=CC(=O)Nc1ccc2ncc(C#N)c(Nc3cccc(F)c3)c2c1` [Example 88, N-[3-Cyano-4-(3-fluorophenylamino)quinolin-6-yl]acrylamide], the IC50 is more than 60.2 µM.

Regarding `COc1cc2ncc(C#N)c(Nc3cccc([N+](=O)[O-])c3)c2cc1OC` [Example 89, 6.7-Dimethoxy-4-(3-nitrophenylamino)quinoline-3-carbonitrile], the IC50 is more than 28.6 µM. As to `CCOc1cc2c(Nc3ccc(C)c(O)c3)c(C#N)cnc2cc1OC` [Example 97, 6-Ethoxy-4-(3-hydroxy-4-methylphenylamino)-7-methoxyquinoline-3-carbonitrile], the IC50 was more than 28.7 µM.

With `Cc1cc([N+](=O)[O-])cc2c(Nc3cccc(Br)c3)c(C#N)cnc12` [Example 105, 4-[(3-Bromophenyl)amino]-8-methyl-6-nitro-3-quinolinecarbonitrile], the IC50 is more than 26.1 µM. The same measure, in the same setting: the figure for `CN(C)Cc1cc([N+](=O)[O-])cc2c(Nc3cccc(Br)c3)c(C#N)cnc12` [Example 108, 4-[(3-Bromophenyl)amino]-8-dimethylaminomethyl-6-nitro-3-quinolinecarbonitrile] is more than 23.5 µM; for `CN(C)Cc1cc(N)cc2c(Nc3cccc(Br)c3)c(C#N)cnc12` [Example 109, 6-Amino-4-[(3-bromophenyl)amino]-8-dimethylaminomethyl-3-quinolinecarbonitrile] it is more than 25.2 µM. Same read-out and setting: the figure for `CC#CC(=O)Nc1cc(CN(C)C)c2ncc(C#N)c(Nc3cccc(Br)c3)c2c1` [Example 110, N-{4-[(3-Bromophenyl)amino]-3-cyano-8-dimethylaminomethyl-6-quinolinyl} -2-butynamide] is more than 43.3 µM; for `CC(=O)Nc1cc(CN(C)C)c2ncc(C#N)c(Nc3cccc(Br)c3)c2c1` [Example 112, N-{4-[(3-Bromophenyl)amino]-3-cyano-8-dimethylaminomethyl-6-quinolinyl} acetamide] it is more than 22.8 µM; for `COc1cc2ncc(C#N)c(Nc3ccc(F)c(Cl)c3)c2cc1OCCCN1CCOCC1` [Example 125] it is 42.5 µM. With `N#Cc1cnc2ccc(N)cc2c1Nc1cccc(I)c1` [Example 130, 6-Amino-4-[(3-iodophenyl)amino]-3-quinolinecarbonitrile], the IC50 is more than 25.9 µM. The same measure, in the same setting: next, `N#Cc1cnc2ccc([N+](=O)[O-])cc2c1Nc1cccc(I)c1` [Example 131, 4-[(3-Iodophenyl)amino]-6-nitro-3-quinolinecarbonitrile]: more than 58.8 µM; `Cc1cccc(Nc2c(C#N)cnc3ccc(N)cc23)c1` [Example 133, 6-Amino-4-[(3-methylphenyl)amino]-3-quinolinecarbonitrile]: more than 72.9 µM. On the same count and under the same terms, next, `Cc1cccc(Nc2c(C#N)cnc3ccc([N+](=O)[O-])cc23)c1` [Example 134]: more than 32.9 µM; `C=CC(=O)Nc1ccc2ncc(C#N)c(Nc3cccc(Cl)c3)c2c1` [Example 135, N-4-[(3-Chlorophenyl)amino]-3-cyano-6-guinolinyl-2-propenarnide]: more than 57.3 µM. The same measure, in the same setting: next, `N#Cc1cnc2ccc(N)cc2c1Nc1cccc(Cl)c1` [Example 136, 6-Amino-4-[(3-chlorophenyl)amino]-3-quinolinecarbonitrile]: more than 67.9 µM. Consider `C=CC(=O)Nc1ccc2ncc(C#N)c(Nc3cccc(OC)c3)c2c1` [Example 138, N-{3-Cyano-4-[(3-methoxyphenyl)amino]-6-quinolinyl}-2-propenamide], for which the IC50 is more than 58.1 µM. Take `CC#CC(=O)Nc1ccc2ncc(C#N)c(Nc3cccc(OC)c3)c2c1` [Example 139, N-{3-Cyano-4-[(3-methoxyphenyl)amino]-6-quinolinyl}-2-butynamide]: the IC50 is more than 56.1 µM.

With `COc1cccc(Nc2c(C#N)cnc3ccc(NC(=O)C#CCN4CCCCC4)cc23)c1` [Example 140, N-{3-cyano-4-[(3-methoxyphenyl)amino]-6-quinolinyl}-4-piperidino-2-butynamide], the concentration for half-maximal inhibition (IC50) was more than 45.5 µM. On to `COc1cccc(Nc2c(C#N)cnc3ccc(N)cc23)c1` [Example 141, 6-Amino-4-[(3-methoxyphenyl)amino]-3-quinolinecarbonitrile], for which the half-inhibitory concentration (IC50) was more than 68.9 µM. On the same count and under the same terms, the figure for `CC#CC(=O)Nc1ccc2ncc(C#N)c(Nc3ccc(F)c(Cl)c3)c2c1` [Example 143, N-{4-[(3-Chloro-4-fluoro-phenyl)amino]-3-cyano-6-quinolinyl}-2-butynamide] is more than 52.8 µM.

In the case of `C=CC(=O)Nc1ccc2ncc(C#N)c(Nc3ccc(F)c(Cl)c3)c2c1` [Example 144, N-{4-[(3-Chloro-4-fluorophenyl)amino]-3-cyano-6-quinolinyl}-2-propenamide], the IC50 is more than 54.5 µM. Regarding `N#Cc1cnc2ccc(N)cc2c1Nc1ccc(F)c(Cl)c1` [Example 149, 6-Amino-4-[(3-chloro-4-fluorophenyl)amino]-3-quinolinecarbonitrile], the IC50 was more than 64 µM.

For the compound `N#Cc1cnc2ccc([N+](=O)[O-])cc2c1Nc1ccc(F)c(Cl)c1` [Example 150, 4-[(3-chloro-4-fluorophenyl)amino]-6-nitro-3-quinolinecarbonitrile], the IC50 was more than 29.2 µM.

With `C=CC(=O)Nc1ccc2ncc(C#N)c(Nc3ccc(Br)cc3)c2c1` [Example 151, N-{4-[(4-Bromophenyl)amino]-3-cyano-6-quinolinyl} -2-propenamide], the IC50 was more than 50.9 µM. Still for that read-out and setting: next, `N#Cc1cnc2ccc(N)cc2c1Nc1ccc(Br)cc1` [Example 152, 6-Amino-4-[(4-bromophenyl)amino]-3-quinolinecarbonitrile]: more than 29.5 µM.

Still in this experiment, the particulars now being: read-out: Eck IC50; pH 7.2.
As for `COc1cc2ncc(C#N)c(N(C)c3ccccc3)c2cc1OC` [Example 44, 4-[(Methylphenyl)amino]-6,7-dimethoxy-3-quinolinecarbonitrile], the IC50 was more than 62.6 µM.
